In paper PMC6369734, “Spy vs. spy: selecting the best reporter for ^19F NMR competition experiments” (Chemical Communications (Cambridge, England), 2019):

What was measured:
[1] = target: VHL (VBC complex: pVHL54-213, eloB1-104, eloC17-112) (Homo sapiens, UniProt P40337); assay: Surface plasmon resonance (SPR) steady-state binding to immobilised biotinylated AviVBC
[2] = target: VHL (VBC complex), Hyp site (Homo sapiens, UniProt P40337); assay: 19F NMR competition experiment, displacement of spy molecule 19; settings: 19 at 50 μM, VHL at 1.0 μM
[3] = target: VHL (VBC complex) (Homo sapiens, UniProt P40337); assay: 19F CPMG NMR transverse relaxation rate (R2) and R2 contrast (C2) of spy molecule with and without protein; settings: for R2 contrast – C2: supplement 8.1
[4] = read-out: K D, SPR, 20 °C, steady-state 1:1 fit, footnote b values fitted because RMAX was not reached experimentally
[5] = read-out: KD (Biacore T200 fit), SPR steady-state fit, supplement section 7
[6] = Spy molecule 100 μM, no protein

| binding kinetics / dissociation rates by SPR ([1]; SPR) | Kd [1, 4] [µM] | Kd [1, 5] [µM] | Displacement of spy molecule 19 [2] | R2 ([3]; Spy molecule 100 μM + VBC 1 μM) [s⁻¹] | R2 contrast – C2 ([3]; Spy molecule 100 μM + VBC 1 μM) [%] | R2 [3, 6] [s⁻¹] | SMILES |
| --- | --- | --- | --- | --- | --- | --- | --- |
| too high to be determined accurately | 0.0969 | 0.0969 | concentration dependent | 4.018 ± 0.245 | 0.8 ± 8.6 | 3.987 ± 0.241 | Cc1ncsc1-c1ccc(CNC(=O)[C@@H]2C[C@@H](O)CN2C(=O)[C@@H](NC(=O)C(F)(F)F)C(C)(C)C)cc1 |
|  | 24.8 | 24.8 | concentration dependent | 4.858 ± 0.123 | 76.0 ± 3.2 | 1.167 ± 0.014 | Cc1ncsc1-c1ccc(CNC(=O)[C@@H]2C[C@@H](O)CN2C(=O)C(F)(F)F)cc1 |
|  | 12.4 | 12.4 |  | 3.116 ± 0.153 | 48.4 ± 5.6 | 1.609 ± 0.042 | Cc1ncsc1-c1ccc(CNC(=O)[C@@H]2C[C@@H](O)CN2C(=O)CC(F)(F)F)cc1 |

Like-named read-outs stand apart in the source and are kept apart here.
